Experiments:
receptor MRGX2 = biological target: T1, receptor MRGX2 (Homo sapiens, UniProt Q96LB1); experiment: Functional assay measuring intracellular calcium mobilisation (FLIPR); type: cell-based; parameters: expressed in transfected cells; host or cells: e.g. HEK293 or CHO-K1 engineered to stably express Galpha15 / Gqi-5; settings: Preliminary EC50 data for receptor MRGX2; transiently transfected host cells expressing Gα15 / Gqi-5, Fluo3 fluorescence
T1 sequence (Q96LB1 1-330): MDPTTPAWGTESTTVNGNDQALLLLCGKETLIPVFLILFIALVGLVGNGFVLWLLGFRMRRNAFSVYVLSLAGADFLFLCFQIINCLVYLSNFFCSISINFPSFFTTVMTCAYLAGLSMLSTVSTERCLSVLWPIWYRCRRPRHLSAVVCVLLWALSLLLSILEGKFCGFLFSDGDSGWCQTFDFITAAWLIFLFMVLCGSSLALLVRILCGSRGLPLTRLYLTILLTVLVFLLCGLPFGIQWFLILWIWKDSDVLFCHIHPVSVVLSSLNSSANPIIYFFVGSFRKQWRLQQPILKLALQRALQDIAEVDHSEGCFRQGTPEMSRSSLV

Amino acid sequences for entries named in this document (tags omitted). A change or cut given only in a name is not applied to a line headed by its entry.
UniProt Q96LB2: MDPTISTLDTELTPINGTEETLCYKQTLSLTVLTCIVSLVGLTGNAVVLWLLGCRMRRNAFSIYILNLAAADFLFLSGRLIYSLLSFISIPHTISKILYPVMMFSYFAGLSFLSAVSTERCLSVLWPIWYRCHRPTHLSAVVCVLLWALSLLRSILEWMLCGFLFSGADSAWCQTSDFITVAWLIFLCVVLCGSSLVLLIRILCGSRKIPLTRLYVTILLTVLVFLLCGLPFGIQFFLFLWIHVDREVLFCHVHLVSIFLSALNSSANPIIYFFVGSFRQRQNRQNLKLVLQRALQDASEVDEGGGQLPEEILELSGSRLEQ

SNSR4 = SNSR4 (Homo sapiens, UniProt Q96LB2); settings: SNSR4 (MRGX1); cited from earlier work

Substance	EC50 (receptor MRGX2)	EC50 (SNSR4)
BAM 13-22	100 nM	–
Bovine adrenal medulla peptide 22 [BAM 22]	–	16 nM
